Data published in patent publication US10653796B2, “Liposomes containing cell penetrating peptides and tetraetherlipids for the oral delivery of macromolecules” (Universität Heidelberg, priority 2015, dated 2020).

Assay: Radioactivity at determined time points after oral application of radiolabeled substances
Type: in vivo
Conditions: radiolabeled substance

In the case of Insulin [reference compound], the “mucosal uptake by the liposomal formulations” value is reported as “strongly enhanced mucosal uptake”.
